Reference: patent publication US4801604A (priority 1987, dated 1989)
This is a selection: effects in other tests are not listed, and their absence says nothing.

Test system: CF-1 mice
Assay: Maximal transpinal electroshock anti-convulsant test (absence of tonic extensor convulsion)
Settings: Example 7 Table 2, subcutaneous, 10 mA, 0.2 sec

Structure (SMILES): O=C(N[C@@H]1CCCC[C@@H]1N1CCCC1)c1ccc(Cl)c(Cl)c1 (relative stereo)
- Electro-Convulsive Shock Antagonism ED50: 18 mg/kg
